Experimental data from patent publication US20250073242A1, “SLC26A3 INHIBITORS AND USE THEREOF” (THE REGENTS OF THE UNIVERSITY OF CALIFORNIA, priority 2021, published 2025).

Sequences of proteins named here, by UniProt entry; tags and fusion partners are left off.
UniProt Q9WVC8, whole entry: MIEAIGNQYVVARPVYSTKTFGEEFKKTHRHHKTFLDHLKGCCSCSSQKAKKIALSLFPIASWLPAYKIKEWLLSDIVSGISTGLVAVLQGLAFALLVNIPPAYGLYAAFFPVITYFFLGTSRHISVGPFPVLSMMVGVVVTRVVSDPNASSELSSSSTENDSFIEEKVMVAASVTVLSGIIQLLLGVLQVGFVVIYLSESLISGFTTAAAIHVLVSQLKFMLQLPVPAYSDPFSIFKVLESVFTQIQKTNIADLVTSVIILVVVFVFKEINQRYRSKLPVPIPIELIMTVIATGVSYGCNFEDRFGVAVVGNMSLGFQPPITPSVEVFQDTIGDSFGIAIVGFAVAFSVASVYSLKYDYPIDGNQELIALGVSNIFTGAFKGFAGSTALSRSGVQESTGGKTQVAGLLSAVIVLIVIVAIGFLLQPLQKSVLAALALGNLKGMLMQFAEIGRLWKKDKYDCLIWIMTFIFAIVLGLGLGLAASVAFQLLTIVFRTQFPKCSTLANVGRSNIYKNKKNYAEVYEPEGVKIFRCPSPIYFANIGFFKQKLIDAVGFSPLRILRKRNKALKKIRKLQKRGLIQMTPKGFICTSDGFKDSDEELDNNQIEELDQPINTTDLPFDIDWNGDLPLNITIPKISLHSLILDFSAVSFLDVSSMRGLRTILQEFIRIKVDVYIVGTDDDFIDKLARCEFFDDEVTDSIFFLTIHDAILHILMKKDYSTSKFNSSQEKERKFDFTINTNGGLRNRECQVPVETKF

Target: SLC26A3 (Mus musculus, UniProt Q9WVC8)
Test: SLC26A3 inhibition, concentration-dependence (high throughput screening and structure-activity studies)
Type: cell-based
Settings: Class I, Table 5

| IC50 [nM] | Structure (SMILES) |
| --- | --- |
| 260 | O=C(Nc1cccc(-c2nc3ccccc3c(=O)o2)c1)c1ccc(Cl)cc1 |
| 100 | O=C(Nc1cccc(-c2nc3ccccc3c(=O)o2)c1)c1ccccc1Br |
